This assay concerns the target bovine trypsin (Bos taurus) (UniProt P00760). As to the kind of experiment: yeast surface display with four-gate FACS sorting and deep sequencing, enrichment normalized to ddG with purified-protein data.

For A16C (from UniProt P00974), the ddG was determined as 9.65 kcal/mol.
Then A16D (from UniProt P00974), with 9.13 kcal/mol; and A16E (from UniProt P00974), with 8.65 kcal/mol; and A16F (from UniProt P00974), with 10.1 kcal/mol.
Then A16H (from UniProt P00974), with 8.84 kcal/mol.
A16I (from UniProt P00974): the ddG was found to be 5.09 kcal/mol.
With A16K (from UniProt P00974) the figure was 9.83 kcal/mol; with A16M (from UniProt P00974), 3.96 kcal/mol.
With A16N (from UniProt P00974) the figure was 8.97 kcal/mol; with A16P (from UniProt P00974), 9.01 kcal/mol.
Then A16Q (from UniProt P00974), with 6.73 kcal/mol; and A16T (from UniProt P00974), with 4.85 kcal/mol; and A16Y (from UniProt P00974), with 8.04 kcal/mol.
As to G12C (from UniProt P00974), the ddG was found to be 6.81 kcal/mol.
With G12D (from UniProt P00974) the figure was 4.71 kcal/mol; with G12E (from UniProt P00974), 4.87 kcal/mol; with G12F (from UniProt P00974), 2.59 kcal/mol.
G12H (from UniProt P00974) registered a ddG of 4.53 kcal/mol.
As to G12I (from UniProt P00974), the ddG amounted to 2.51 kcal/mol.
For the substance G12K (from UniProt P00974), the ddG came out at 4.95 kcal/mol.
G12L (from UniProt P00974) showed a ddG of 3.65 kcal/mol.
Then G12M (from UniProt P00974), with 4.26 kcal/mol.
For G12N (from UniProt P00974), the ddG stood at 4.36 kcal/mol.
With G12P (from UniProt P00974), the ddG was 3.71 kcal/mol.
Then G12Q (from UniProt P00974), with 4.07 kcal/mol.
With G12R (from UniProt P00974) the figure was 4.32 kcal/mol.
With G12S (from UniProt P00974) the figure was 3.09 kcal/mol; with G12T (from UniProt P00974), 3.86 kcal/mol.
The substance G12V (from UniProt P00974) yielded a ddG of 3.24 kcal/mol.
With G12W (from UniProt P00974) the figure was 2.49 kcal/mol.
G12Y (from UniProt P00974): the ddG was determined as 3.77 kcal/mol.
In turn, G36C (from UniProt P00974) had a ddG of 9.1 kcal/mol.
Then G36D (from UniProt P00974), with 4.57 kcal/mol; and G36E (from UniProt P00974), with 7.66 kcal/mol; and G36F (from UniProt P00974), with 3.3 kcal/mol.
As for G36H (from UniProt P00974), the ddG is 4.26 kcal/mol.
Then G36I (from UniProt P00974), with 8.79 kcal/mol.
With G36K (from UniProt P00974) the figure was 4.63 kcal/mol; with G36L (from UniProt P00974), 7.69 kcal/mol.
With G36M (from UniProt P00974) the figure was 4.4 kcal/mol.
As for G36N (from UniProt P00974), the ddG stood at 4.68 kcal/mol.
In turn, G36P (from UniProt P00974) yielded a ddG of 8.35 kcal/mol.
G36Q (from UniProt P00974) came in with a ddG of 4.88 kcal/mol.
In turn, G36R (from UniProt P00974) came in with a ddG of 3.54 kcal/mol.
Then G36S (from UniProt P00974), with 3.42 kcal/mol.
G36T (from UniProt P00974): the ddG came out at 4.54 kcal/mol.
With G36V (from UniProt P00974) the figure was 6.93 kcal/mol; with G36W (from UniProt P00974), 6.11 kcal/mol.
The substance G36Y (from UniProt P00974) yielded a ddG of 4.23 kcal/mol.
G37A (from UniProt P00974) gave a ddG of 1.47 kcal/mol.
Then G37C (from UniProt P00974), with 7.33 kcal/mol.
G37D (from UniProt P00974) returned a ddG of 7.4 kcal/mol.
With G37E (from UniProt P00974) the figure was 7.31 kcal/mol; with G37F (from UniProt P00974), 3.37 kcal/mol; with G37H (from UniProt P00974), 3.53 kcal/mol.
With G37I (from UniProt P00974) the figure was 6.41 kcal/mol; with G37K (from UniProt P00974), 3.41 kcal/mol.
With G37L (from UniProt P00974) the figure was 1.95 kcal/mol; with G37M (from UniProt P00974), 1.36 kcal/mol; with G37N (from UniProt P00974), 2.1 kcal/mol.
In turn, G37P (from UniProt P00974) showed a ddG of 10.9 kcal/mol.
Then G37Q (from UniProt P00974), with 3.9 kcal/mol.
With G37R (from UniProt P00974) the figure was 3.4 kcal/mol; with G37S (from UniProt P00974), 3.01 kcal/mol; with G37T (from UniProt P00974), 4 kcal/mol.
In the case of G37V (from UniProt P00974), the ddG came to 5.68 kcal/mol.
Substance G37W (from UniProt P00974) displayed a ddG of 5.24 kcal/mol.
The substance G37Y (from UniProt P00974) showed a ddG of 4.18 kcal/mol.
With I18C (from UniProt P00974) the figure was 4.95 kcal/mol; with I18D (from UniProt P00974), 4.36 kcal/mol; with I18E (from UniProt P00974), 4.14 kcal/mol.
I18F (from UniProt P00974) showed a ddG of 1.81 kcal/mol.
With I18G (from UniProt P00974) the figure was 4.37 kcal/mol; with I18H (from UniProt P00974), 3.4 kcal/mol.
Turning to I18K (from UniProt P00974), the ddG was 3.89 kcal/mol.
In turn, I18L (from UniProt P00974) showed a ddG of 3.33 kcal/mol.
For I18M (from UniProt P00974), the ddG is 3.24 kcal/mol.
Then I18N (from UniProt P00974), with 4.24 kcal/mol.
Turning to I18P (from UniProt P00974), the ddG came to 5.14 kcal/mol.
Then I18Q (from UniProt P00974), with 3.4 kcal/mol; and I18R (from UniProt P00974), with 3.48 kcal/mol.
Turning to I18S (from UniProt P00974), the ddG is 4.84 kcal/mol.
With I18T (from UniProt P00974) the figure was 4.57 kcal/mol; with I18V (from UniProt P00974), 2.97 kcal/mol.
I18W (from UniProt P00974) displayed a ddG of 2.53 kcal/mol.
In turn, I18Y (from UniProt P00974) showed a ddG of 2.17 kcal/mol.
With K15C (from UniProt P00974) the figure was 11.6 kcal/mol.
With K15P (from UniProt P00974) the figure was 9.77 kcal/mol; with P13A (from UniProt P00974), 3.77 kcal/mol.
Then P13C (from UniProt P00974), with 7.04 kcal/mol.
Turning to P13D (from UniProt P00974), the ddG is 4.31 kcal/mol.
With P13E (from UniProt P00974) the figure was 4.4 kcal/mol.
With P13F (from UniProt P00974) the figure was 0.452 kcal/mol.
With P13G (from UniProt P00974), the ddG was 4.27 kcal/mol.
For the substance P13H (from UniProt P00974), the ddG came to 3.54 kcal/mol.
On to P13I (from UniProt P00974), for which the ddG was found to be 1.83 kcal/mol.
For the substance P13K (from UniProt P00974), the ddG was 3.05 kcal/mol.
With P13L (from UniProt P00974) the figure was 2.75 kcal/mol; with P13M (from UniProt P00974), 0.628 kcal/mol.
P13N (from UniProt P00974) yielded a ddG of 3.64 kcal/mol.
With P13Q (from UniProt P00974) the figure was 2.75 kcal/mol; with P13R (from UniProt P00974), 1.53 kcal/mol; with P13S (from UniProt P00974), 4.04 kcal/mol.
Turning to P13T (from UniProt P00974), the ddG is 4.01 kcal/mol.
P13V (from UniProt P00974) gave a ddG of 1.68 kcal/mol.
P13W (from UniProt P00974) showed a ddG of 1.08 kcal/mol.
With P13Y (from UniProt P00974) the figure was 1.08 kcal/mol; with R17A (from UniProt P00974), 2.18 kcal/mol.
Substance R17C (from UniProt P00974) yielded a ddG of 3.97 kcal/mol.
With R17D (from UniProt P00974) the figure was 4.77 kcal/mol; with R17E (from UniProt P00974), 5.11 kcal/mol.
Then R17F (from UniProt P00974), with 3.03 kcal/mol; and R17G (from UniProt P00974), with 4.16 kcal/mol.
R17H (from UniProt P00974) returned a ddG of 3.47 kcal/mol.
On to R17I (from UniProt P00974), for which the ddG was determined as 1.21 kcal/mol.
With R17K (from UniProt P00974) the figure was 4.11 kcal/mol.
With R17L (from UniProt P00974) the figure was -0.314 kcal/mol.
As for R17M (from UniProt P00974), the ddG is -0.0474 kcal/mol.
R17N (from UniProt P00974): the ddG stood at 3.19 kcal/mol.
In the case of R17P (from UniProt P00974), the ddG was 9.82 kcal/mol.
With R17Q (from UniProt P00974) the figure was 3.69 kcal/mol; with R17S (from UniProt P00974), 3.17 kcal/mol; with R17T (from UniProt P00974), 3.88 kcal/mol.
Turning to R17V (from UniProt P00974), the ddG stood at 2.33 kcal/mol.
As to R17W (from UniProt P00974), the ddG is 4.74 kcal/mol.
Then R17Y (from UniProt P00974), with 2.78 kcal/mol; and R39A (from UniProt P00974), with 2.45 kcal/mol.
Turning to R39C (from UniProt P00974), the ddG was 6.25 kcal/mol.
The substance R39D (from UniProt P00974) gave a ddG of 5.43 kcal/mol.
With R39E (from UniProt P00974), the ddG was determined as 6.12 kcal/mol.
For R39F (from UniProt P00974), the ddG amounted to 2.67 kcal/mol.
Then R39G (from UniProt P00974), with 2.29 kcal/mol.

Values taken from publication PMC6962383.
